Yeast mating assay 1: variants of the scFv Ab-14

Reference: Engelhart et al. 2022, doi:10.1038/s41597-022-01779-4. File: FLAb, binding data.

Target peptide (SARS-CoV-2 spike, HR2 region): PDVDLGDISGINAS

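The starting antibody came from a phage panning campaign against this peptide. AAYL50 was designed without a model: most single CDR substitutions and a random sample of double and triple ones. The scFvs were displayed on barcoded MATa yeast, the peptide on MATalpha yeast. The frequency of each diploid, read from paired DNA barcodes, reflects how well the two displayed proteins bind. Read counts were normalised to the haploid input and turned into Kd by a linear fit to BCL2-family pairs of known affinity, for each replicate. There are three technical replicates.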

Ab-14 is the parent antibody, in scFv form: VH, then a 15-residue (Gly4Ser)3 linker, then VL. The heavy chain is unchanged in all variants.
VH: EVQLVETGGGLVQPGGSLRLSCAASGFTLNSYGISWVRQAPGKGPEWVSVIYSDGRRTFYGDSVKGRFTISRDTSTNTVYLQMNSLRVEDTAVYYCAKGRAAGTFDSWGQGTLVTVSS
VL: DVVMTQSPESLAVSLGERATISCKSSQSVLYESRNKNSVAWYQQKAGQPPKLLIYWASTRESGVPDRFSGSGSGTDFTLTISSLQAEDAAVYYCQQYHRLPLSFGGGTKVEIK

The parent's light chain CDRs are KSSQSVLYESRNKNSVA, WASTRES, QQYHRLPLS; each variant's own CDRs replace them letter for letter. Values are log10 of the apparent Kd in nM; lower means stronger binding. An entry "nd" has no value in the source: the pair was not observed among the diploids in that replicate. This suggests poor binding but is not conclusive. Three control strains display no target. For library AAYL50, 18% of the pairings with them gave a signal, with a median of 4.19 and one signal in twenty below 2.99, so weak values seen in few replicates may be background. The control count says in how many pairings with the empty strains this scFv gave a signal, with their mean in brackets.

{"CDR-L1": "ASSQSVLYESRNKKSVA", "CDR-L2": "WASTRES", "CDR-L3": "QQYHRLPGS", "replicates, log10 nM": "2.95 2.96 3.10", "control signals": "1 of 9 (3.08)"}
{"CDR-L1": "KSSQSVKYESRNVNSVA", "CDR-L2": "WAQTRES", "CDR-L3": "QQYHRLPLS", "replicates, log10 nM": "2.66 2.43 3.20", "control signals": "0 of 9"}
{"CDR-L1": "KSSQSVLYESRNKNSVA", "CDR-L2": "YASTREK", "CDR-L3": "DQYHRLPLS", "replicates, log10 nM": "4.84 nd 5.97", "control signals": "2 of 9 (4.41)"}
{"CDR-L1": "KSSQSVLMESRNKNSVA", "CDR-L2": "WAQTRES", "CDR-L3": "QQYHRLPLS", "replicates, log10 nM": "3.97 3.85 3.20", "control signals": "1 of 9 (4.22)"}
{"CDR-L1": "KSSQSVEYESRHKNSEA", "CDR-L2": "WASTRES", "CDR-L3": "QQYHRLPLS", "replicates, log10 nM": "4.06 nd nd", "control signals": "4 of 9 (4.91)"}
{"CDR-L1": "KSSQQVLYESRRKNSVA", "CDR-L2": "WASTRES", "CDR-L3": "QQYHRLPLS", "replicates, log10 nM": "2.43 2.66 2.67", "control signals": "0 of 9"}
{"CDR-L1": "KTSQSVCYESRNKNSVA", "CDR-L2": "WDSTRES", "CDR-L3": "QQYHRLPLS", "replicates, log10 nM": "nd 5.61 nd", "control signals": "3 of 9 (4.20)"}
{"CDR-L1": "KSSQSVLYESRMKNFVY", "CDR-L2": "WASTRES", "CDR-L3": "QQYHRLPLS", "replicates, log10 nM": "nd 3.48 nd", "control signals": "1 of 9 (4.54)"}
{"CDR-L1": "ASSQSVLYPSRNKNRVA", "CDR-L2": "WASTRES", "CDR-L3": "QQYHRLPLS", "replicates, log10 nM": "3.29 3.60 nd", "control signals": "1 of 9 (3.04)"}
{"CDR-L1": "VSSQSVLYESRNKNSVA", "CDR-L2": "WASTREK", "CDR-L3": "QQYHRLPYS", "replicates, log10 nM": "5.88 3.26 nd", "control signals": "2 of 9 (4.17)"}
{"CDR-L1": "KASQSVLYESRNKNSVA", "CDR-L2": "WASTRFT", "CDR-L3": "QQYHRLPLS", "replicates, log10 nM": "nd nd nd", "control signals": "1 of 9 (3.24)"}
{"CDR-L1": "KSSQSVLYEVRNKNSVA", "CDR-L2": "WASTDES", "CDR-L3": "QQYWRLPLS", "replicates, log10 nM": "nd nd 3.80", "control signals": "2 of 9 (4.57)"}
{"CDR-L1": "KSSQSVLYESRNRNSVA", "CDR-L2": "WASTRES", "CDR-L3": "GQYHRLPNS", "replicates, log10 nM": "3.35 3.01 4.04", "control signals": "0 of 9"}
{"CDR-L1": "KSSQSVLLESRYKNSVA", "CDR-L2": "WASTDES", "CDR-L3": "QQYHRLPLS", "replicates, log10 nM": "nd 4.13 nd", "control signals": "3 of 9 (3.98)"}
{"CDR-L1": "KSSQSVLYESREKNSVA", "CDR-L2": "WASTRES", "CDR-L3": "NQYHRLPLV", "replicates, log10 nM": "nd nd nd", "control signals": "0 of 9"}
{"CDR-L1": "KQSQSVLYRSRNKNSVA", "CDR-L2": "WASSRES", "CDR-L3": "QQYHRLPLS", "replicates, log10 nM": "nd nd 4.87", "control signals": "1 of 9 (4.31)"}
{"CDR-L1": "FCSQSVLYESENKNSVA", "CDR-L2": "WASTRES", "CDR-L3": "QQYHRLPLS", "replicates, log10 nM": "0.82 0.68 0.81", "control signals": "2 of 9 (3.82)"}
{"CDR-L1": "KSQQSVLYESNNKNSVA", "CDR-L2": "WASTREH", "CDR-L3": "QQYHRLPLS", "replicates, log10 nM": "-0.03 0.33 0.16", "control signals": "4 of 9 (4.53)"}
{"CDR-L1": "KSSQSVLPCSRNKNSVA", "CDR-L2": "WANTRES", "CDR-L3": "QQYHRLPLS", "replicates, log10 nM": "nd 3.77 nd", "control signals": "0 of 9"}
{"CDR-L1": "KSSQSVLYESRNKNSVF", "CDR-L2": "WASTRES", "CDR-L3": "HQYSRLPLS", "replicates, log10 nM": "4.42 3.71 nd", "control signals": "0 of 9"}
{"CDR-L1": "KSSRSVLYESRSKNSVA", "CDR-L2": "WAPTRES", "CDR-L3": "QQYHRLPLS", "replicates, log10 nM": "4.16 3.31 nd", "control signals": "3 of 9 (3.83)"}
{"CDR-L1": "KSSQSVLYESENKNEVA", "CDR-L2": "WASTRES", "CDR-L3": "QQYHRLPLS", "replicates, log10 nM": "nd nd nd", "control signals": "0 of 9"}
{"CDR-L1": "KSSWSVLYESRYKNSGA", "CDR-L2": "WASTRES", "CDR-L3": "QQYHRLPLS", "replicates, log10 nM": "nd nd nd", "control signals": "3 of 9 (4.27)"}
{"CDR-L1": "KSSQSVLYESRNKNSKA", "CDR-L2": "WASTRGS", "CDR-L3": "EQYHRLPLS", "replicates, log10 nM": "nd nd nd", "control signals": "0 of 9"}
{"CDR-L1": "KSSQSVLYDSRMKNSVA", "CDR-L2": "WASTRES", "CDR-L3": "QQYHRLPLS", "replicates, log10 nM": "0.52 0.66 0.55", "control signals": "0 of 9"}
{"CDR-L1": "KSSQSVLSESRNINSVA", "CDR-L2": "WASTRES", "CDR-L3": "QQYYRLPLS", "replicates, log10 nM": "1.18 1.82 1.43", "control signals": "0 of 9"}
{"CDR-L1": "KSSQSVLYESRNKNRVA", "CDR-L2": "WASTKES", "CDR-L3": "QQYHRLPLT", "replicates, log10 nM": "3.82 nd 4.21", "control signals": "2 of 9 (3.84)"}

Repeated from above, the 2 best binders with a signal in all replicates:

{"CDR-L1": "KSQQSVLYESNNKNSVA", "CDR-L2": "WASTREH", "CDR-L3": "QQYHRLPLS", "replicates, log10 nM": "-0.03 0.33 0.16", "control signals": "4 of 9 (4.53)"}
{"CDR-L1": "KSSQSVLYDSRMKNSVA", "CDR-L2": "WASTRES", "CDR-L3": "QQYHRLPLS", "replicates, log10 nM": "0.52 0.66 0.55", "control signals": "0 of 9"}